This is a selection; strong and weak results do not stand in their true shares. Records with an inconclusive call do not appear. Activity calls are given as the source filed them. Calls come from the whole dose curve; as a rule, active = well fitted inhibition curve with a large enough effect; inconclusive = small, poorly fitted or top-dose-only effect; inactive = no such curve, though single readings can be large or run the other way.
Assay: qHTS Assay for Inhibitors of the ERK Signaling Pathway using a Homogeneous Screening Assay; note: nearly all actives have a fitted effect of over 55% in size
Settings: HEK293-V1b, vasopressin-stimulated pERK AlphaScreen
Description: qHTS Assay for Inhibitors of the ERK Signaling Pathway using a Homogeneous Screening Assay; note: nearly all actives have a fitted effect of over 55% in size
NIH Chemical Genomics Center [NCGC]
NIH Molecular Libraries Screening Centers Network [MLSCN]
Assay Submitter (PI): Dr. Wei Zheng, NCGC/NIH
The Ras/extracellular-signal-regulated kinase (ERK) mitogen activated protein (MAP) kinase signaling pathway (ERK1/2 cascade) plays is a key role in transmitting signals from the cell surface to the nucleus (Nishida and Gotoh 1993; Chang and Karin, 2001). The cascade is initiated by the small G-protein Ras, which recruits Raf […], where activation occurs. Alternatively, this pathway can be activated by elevating intracellular cAMP.
Activation of the ERK pathway is essential in increased cell division and cell survival. […]
HEK293 cells stably expressing type-1 vasopressin receptor (V1b) were maintained in DMEM medium (Invitrogen, Carlsbad, CA) at 37C under a humidified atmosphere containing 5% CO2 and 95% air. […] The ERK phosphorylation in cells was determined using an AlphaScreen assay kit provided by PerkinElmer. […] AC50 values were determined from concentration-response data modeled with the standard Hill equation. […]
(10) Detect the assay plate in an EnVision plate reader (PerkinElmer) using the AlphaScreen detection mode. […]
Potency is the fitted concentration of half-maximal effect.

| Compound | Potency |
| --- | --- |
| COc1cccc(-c2cc(=O)c3ccccc3o2)c1N | active: 3.98 µM |
